scFv variants of Ab-14 (light chain) against a SARS-CoV-2 spike peptide

From the AlphaSeq antibody data of Li et al. 2023 (doi:10.1038/s41467-023-39022-2), copy in the FLAb collection.

All variants were tested on one target, the spike HR2 peptide PDVDLGDISGINAS (SARS-CoV-2).

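The starting antibody came from a phage panning campaign against this peptide. This is the validation round: designs drawn from the data on random variants, tested in the same kind of assay. Their group label is 14L_GP_Gibbs (GP: Gaussian process model; Gibbs: Gibbs sampling; a sequence that several methods proposed may carry one label only). The assay is AlphaSeq: two haploid yeast populations carry antibody and antigen on their surface. Pairs that bind mate more often; barcode pairs of the diploids are counted by sequencing. The ratio of observed to expected reads was calibrated, replicate by replicate, on BCL2-family standards whose Kd was known from biolayer interferometry. Each pool was mated in six replicate cultures.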

Ab-14 is the parent antibody, in scFv form: VH, then three GGGGS repeats, then VL. The heavy chain is unchanged in all variants.
VH: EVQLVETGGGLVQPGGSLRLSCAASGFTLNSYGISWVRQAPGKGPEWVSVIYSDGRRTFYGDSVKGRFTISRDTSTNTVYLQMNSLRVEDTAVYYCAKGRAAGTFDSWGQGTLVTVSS
VL: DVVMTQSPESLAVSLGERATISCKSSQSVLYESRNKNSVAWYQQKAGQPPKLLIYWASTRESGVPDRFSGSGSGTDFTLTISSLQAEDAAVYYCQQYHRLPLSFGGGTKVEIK

Changes read parent residue, position, new residue, counted from the first residue of the VL shown.
Scale: log10 of Kd in nM, estimated from mating counts; low values are strong binders.
A mean of the replicates is given; it leaves out those without a signal.
Where no diploid with the target was found in that replicate, the entry reads "nd": below detection, most likely a poor binder, though not proof of it.
The range of this assay differs from that of the first round, and the authors advise against merging the two.

changes,log10 Kd (nM) by replicate,"mean, log10 nM",control signals
S25L S28L V29G E32G S33Q N37M W56Q T59Q,-0.08 0.18 0.01 0.07 -0.24 -0.10,-0.03,1/18 (3.10)
S25L L30E N35Q W56N E61M S62Q S103L,0.55 0.38 0.31 0.41 0.42 0.49,0.43,3/18 (2.34)
S25V Q27N L30D Y31G S33D S38A W56E,-0.33 0.24 -0.07 -0.62 -0.33 0.16,-0.16,0/18
S26D V29H E32G W56N T59E,0.20 0.04 0.12 -0.12 -0.08 0.21,0.06,0/18
S25L S28M V29M L30P K36A W56N S62E,-0.24 -0.36 -0.25 -0.34 -0.50 -0.15,-0.31,0/18
S25F V29M N35V S38N W56N T59Q Q96M,1.41 1.52 1.35 2.00 1.73 1.08,1.51,3/18 (2.37)
S25I Q27G L30M Y31M E32L S33Q K36D W56D S58N,-0.09 -0.01 -0.32 -0.43 -0.37 -0.19,-0.24,1/18 (3.27)
S25L S26M Q27C V29M L30E K36T W56N,0.34 0.45 0.04 0.00 0.28 0.26,0.23,2/18 (2.18)
S25V S26E Q27M S28G L30D Y31D E32L S33E K36D,2.19 1.60 1.08 1.29 1.00 1.34,1.42,1/18 (1.51)
S25V S28M L30P S33E S38N W56N E61M,0.02 0.02 -0.06 -0.09 0.08 -0.07,-0.02,1/18 (2.78)
S25L Q27G V29M L30E E32Q S38N W56N T59Q S62Q Q96S,0.27 0.20 0.08 0.16 0.17 0.28,0.19,0/18
S25M L30D Y31L K36W W56M E61M S62D,0.42 0.04 0.08 0.09 0.00 -0.02,0.10,1/18 (1.57)
S25V S28K V29D L30P Y31M E32G W56E T59L S62D,1.21 1.34 0.84 0.75 0.56 0.85,0.92,2/18 (2.48)
S25V S28G V29M L30W W56D T59M S103Q,-0.12 -0.24 -0.27 -0.28 -0.39 -0.18,-0.25,0/18
K24H S25M S26Y V29G K36Q W56S T59M,nd 1.36 nd 1.59 1.11 1.78,1.46,0/18
S25L V29W K36S W56D E61L,0.09 0.17 0.09 -0.09 0.19 0.16,0.10,0/18
S25L V29E W56G E61C S62E,-0.23 -0.28 -0.24 -0.24 -0.34 -0.16,-0.25,1/18 (3.08)
S25V S26Y Q27I S28L V29D L30D Y31G E32G S33D W56H,0.42 0.46 0.47 0.35 0.32 0.53,0.42,4/18 (3.09)
S25Q S26Q S28G V29D Y31M W56H T59E,0.34 0.18 -0.07 0.33 0.06 0.23,0.18,3/18 (2.64)
S25L Q27Y V29F L30M Y31M E32L K36D W56D,-0.02 -0.05 -0.17 -0.21 -0.34 -0.01,-0.13,1/18 (2.57)
Q27G L30M Y31G S33D R34M W56H T59Q S103M,0.26 0.32 0.21 0.23 0.20 0.25,0.25,3/18 (2.39)
S25L S28Q V29N L30E N35M K36M W56M T59Q,1.70 0.86 1.34 3.62 1.52 1.00,1.67,1/18 (1.71)
K24I S25L S26Q V29M L30W W56D T59V,-0.19 -0.24 -0.18 -0.15 -0.43 -0.13,-0.22,0/18
S25V S26P V29N S33A K36A S38N W56S E61L,-0.05 0.04 0.22 -0.27 0.10 0.04,0.01,0/18
S25W S26M Q27E S28G V29W W56E A57G,0.59 0.53 0.25 0.12 0.69 0.82,0.50,0/18
S25L S26F V29W S33Q N35Q K36P W56N T59Q E61L S62L,0.74 0.39 0.31 0.60 0.35 0.57,0.49,1/18 (2.92)
S25L S28D V29D L30W K36C W56Q S62Q,0.37 0.43 0.44 0.33 0.31 0.79,0.45,0/18
S25L S26V V29E N35Q K36S W56N T59Y,0.55 0.41 0.22 -0.14 0.27 0.50,0.30,2/18 (2.15)
S25A S26Q V29D L30P W56S E61S,0.72 0.61 0.54 0.57 0.52 0.71,0.61,2/18 (2.32)
S25L S26V V29E S33D K36T W56N T59Q E61C,0.26 0.32 0.11 -0.05 0.18 0.34,0.19,2/18 (2.91)
S25C S26E V29W N35V S38N W56N S58T T59Q,0.20 -0.05 -0.16 -0.12 0.10 0.05,0.00,1/18 (1.90)
S25L S26Q Q27M V29E Y31P S62T,0.39 0.28 0.33 0.03 0.33 0.56,0.32,0/18
K24R S25L S33E K36D W56N E61C,0.36 0.15 0.07 0.04 0.05 0.42,0.18,0/18
S25I S26D Q27I V29E Y31G W56N S62E,0.02 0.00 -0.08 -0.13 -0.20 -0.03,-0.07,0/18
S25L S26M Q27T V29D N35M S38A W56D E61M S62E,-0.21 -0.26 -0.39 -0.42 -0.39 -0.22,-0.31,2/18 (3.89)
S25L Q27F V29N E32W S33D W56Q E61L S62M,0.33 0.28 0.51 0.22 0.16 0.39,0.32,1/18 (2.56)
S25V S26Q Q27M S28L V29G L30C Y31M E32L W56H,1.32 1.70 0.50 0.90 1.64 1.48,1.26,0/18
S25V Q27E S28E Y31M E32G S33D W56K E61L,0.74 0.63 1.00 0.79 1.04 0.92,0.85,0/18
S25F S26E S28L V29D L30G Y31G W56N T59Q S62D,1.04 0.98 0.99 1.05 0.75 1.10,0.99,3/18 (2.75)
S25L V29H K36S S38N W56E T59Y E61M S62D,-0.03 -0.21 -0.37 -0.14 -0.27 -0.11,-0.19,0/18
S25I S26M V29Q Y31G K36V W56N E61L,0.62 0.44 1.71 0.92 0.66 0.48,0.81,0/18
S25L Q27M L30M Y31M E32W W56S S58N S62E,-0.02 0.01 -0.09 -0.21 0.03 -0.01,-0.05,3/18 (2.84)
S25L V29Q L30E R34I K36I W56N E61L S62T,0.44 -0.06 -0.24 -0.04 -0.26 -0.07,-0.04,2/18 (2.06)
S25L L30E W56E S62Y Q96A S103A,0.44 0.28 0.54 0.12 0.35 0.56,0.38,1/18 (2.31)
S25L L30M E32G S33Q W56K E61M S103Y,0.92 1.24 1.21 1.09 0.77 1.22,1.08,1/18 (2.40)
S25L Q27P V29W Y31G S33M K36D W56N E61L,0.91 0.42 0.21 0.22 0.30 0.48,0.42,3/18 (2.55)
S25M V29M N35A K36S W56N T59N E61L,0.99 1.29 0.66 0.99 0.60 1.42,0.99,1/18 (3.09)
S25C S26Q Q27I V29D L30E Y31Q N35Q W56H T59L,0.34 0.18 0.29 0.17 0.20 0.30,0.25,1/18 (2.46)
S25L S26Q L30G S38N W56E A57G T59Q,-0.12 -0.33 -0.37 -0.62 -0.38 -0.22,-0.34,0/18
S25L S26E Q27P S28F V29E L30E W56E,-0.11 -0.32 -0.52 -0.66 -0.36 -0.42,-0.40,0/18

The 5 strongest on average among those seen in every replicate, once more:

changes,log10 Kd (nM) by replicate,"mean, log10 nM",control signals
S25L S26E Q27P S28F V29E L30E W56E,-0.11 -0.32 -0.52 -0.66 -0.36 -0.42,-0.40,0/18
S25L S26Q L30G S38N W56E A57G T59Q,-0.12 -0.33 -0.37 -0.62 -0.38 -0.22,-0.34,0/18
S25L S26M Q27T V29D N35M S38A W56D E61M S62E,-0.21 -0.26 -0.39 -0.42 -0.39 -0.22,-0.31,2/18 (3.89)
S25L S28M V29M L30P K36A W56N S62E,-0.24 -0.36 -0.25 -0.34 -0.50 -0.15,-0.31,0/18
S25L V29E W56G E61C S62E,-0.23 -0.28 -0.24 -0.24 -0.34 -0.16,-0.25,1/18 (3.08)

The authors' rule: three or more of the six replicates give a measured affinity, fewer mean a poor binder.
Nonspecific signal, from three strains lacking the peptide, appeared in 4% of pairings of all light chain designs, centred on 2.64 (5% of these signals below 1.59); values are not corrected for it. For each scFv, signals with the empty controls are counted beside the result, with their mean in brackets.
Of ten entries with the parent sequence, four were seen in most replicates (averages 0.34 to 2.37), three in one and three in none, so single entries are noisy.